Experimental data as given in patent US20160313251A1.

Tests used:
[1] = target: GLP-1 receptor endogenously expressed on RINm5F cells (rat islet-cell tumor line) (rat) (UniProt P32301); test: cell-based or functional assay
[2] = target: glucagon receptor endogenously expressed on RINm5F cells (rat) (UniProt P30082); test: cell-based or functional assay

Exendin 4 (from UniProt P26349) (peptide)
EC50 of cAMP production in RINm5F cells [1]: 0.5 nM

glucagon (from UniProt P01275 53-81) (peptide)
EC50 of cAMP production (BRET, RG-cAMP sensor) in RINm5F cells [2]: 43 nM
